Experimental data reported in ChEMBL document CHEMBL4477204, “Tetrahydroisoquinoline-Derived Urea and 2,5-Diketopiperazine Derivatives as Selective Antagonists of the Transient Receptor Potential Melastatin 8 (TRPM8) Channel Receptor and Antiprostate Cancer Agents” (J Med Chem, 2016).
The source made the active and inactive calls. The calls are words filed in the database; no cut-off is given here.

Protein sequences, listed by entry. Tags and fused reporters are not part of them.
UniProt Q8R455, whole entry, looked up: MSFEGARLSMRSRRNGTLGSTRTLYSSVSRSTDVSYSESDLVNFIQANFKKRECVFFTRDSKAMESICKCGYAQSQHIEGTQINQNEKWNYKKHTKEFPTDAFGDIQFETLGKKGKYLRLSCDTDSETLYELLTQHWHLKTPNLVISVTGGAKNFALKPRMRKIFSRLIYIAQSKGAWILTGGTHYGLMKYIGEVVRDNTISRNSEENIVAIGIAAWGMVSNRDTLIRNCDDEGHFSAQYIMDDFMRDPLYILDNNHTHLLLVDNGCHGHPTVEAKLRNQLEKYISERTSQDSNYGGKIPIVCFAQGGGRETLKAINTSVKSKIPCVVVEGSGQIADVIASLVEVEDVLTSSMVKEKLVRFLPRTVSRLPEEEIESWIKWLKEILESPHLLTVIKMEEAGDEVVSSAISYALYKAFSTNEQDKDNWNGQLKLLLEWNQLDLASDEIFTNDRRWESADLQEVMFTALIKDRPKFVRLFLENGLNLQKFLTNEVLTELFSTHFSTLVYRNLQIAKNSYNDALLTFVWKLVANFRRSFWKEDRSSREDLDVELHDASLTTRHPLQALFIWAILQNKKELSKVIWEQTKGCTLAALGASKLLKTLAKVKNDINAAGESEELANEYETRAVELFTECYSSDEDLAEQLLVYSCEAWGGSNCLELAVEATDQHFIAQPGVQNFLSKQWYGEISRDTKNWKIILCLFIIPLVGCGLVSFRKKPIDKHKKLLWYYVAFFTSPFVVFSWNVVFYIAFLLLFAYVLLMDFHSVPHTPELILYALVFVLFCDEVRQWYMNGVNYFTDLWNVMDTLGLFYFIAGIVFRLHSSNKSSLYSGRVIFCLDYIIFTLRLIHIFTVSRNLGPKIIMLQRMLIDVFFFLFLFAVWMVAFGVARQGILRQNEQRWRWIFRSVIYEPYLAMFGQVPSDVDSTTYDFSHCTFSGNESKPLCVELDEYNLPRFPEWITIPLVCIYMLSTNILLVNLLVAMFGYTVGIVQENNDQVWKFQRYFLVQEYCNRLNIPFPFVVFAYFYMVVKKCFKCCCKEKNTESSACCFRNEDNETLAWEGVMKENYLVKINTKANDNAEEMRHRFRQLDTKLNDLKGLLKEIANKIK

How the values were obtained:
[1] = target: Transient receptor potential cation channel subfamily M member 8 (Rattus norvegicus) (UniProt Q8R455); test: Agonist activity at recombinant rat TRPM8 expressed in HEK293 cells assessed as increase in intracellular calcium accumulation by Fluo-4-AM probe-based spectrofluorimetric assay relative to ionomycin; format: cell-based
Summary of the method: (§1)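 HEK-293 cells stably expressing rat TRPM8 were loaded with Fluo-4-AM (4 µM, 0.02% Pluronic F-127) for 1 h at 25 °C in serum-free EMEM. They were then washed and suspended in Tyrode's buffer pH 7.4 in a stirred cuvette. [Ca2+]i fluorescence (ex 488/em 516 nm) was read before and after compound addition. Wild-type HEK-293 response was subtracted. Efficacy is expressed versus 4 µM ionomycin; EC50 comes from a sigmoidal fit.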

[2] = target: Transient receptor potential cation channel subfamily M member 8 (Rattus norvegicus) (UniProt Q8R455); test: Agonist activity at recombinant rat TRPM8 expressed in HEK293 cells assessed as increase in intracellular calcium accumulation up to 10 uM by Fluo-4-AM probe-based spectrofluorimetric assay; format: cell-based; summary of the method: as §1

| Activity [1] | Activity [2] | Structure (SMILES) |
| --- | --- | --- |
| < 10% | inactive | COc1cc(/C=C2\NC(=O)[C@@H]3Cc4c(OC)c(C)c(OC)c(OC)c4[C@@H](c4ccccc4)N3C2=O)c(OC)c(C)c1OC |
| < 10% | inactive | COc1cc2c(cc1OC)[C@H](c1ccc(F)cc1)N(C(=O)N1CCc3cc(OC)c(OC)cc3[C@@H]1c1ccc(F)cc1)CC2 (racemic) |
| < 10% | inactive | COc1ccc(CCNC(=O)N2CCc3cc(OC)c(OC)cc3C2c2ccc(Br)cc2)cc1OC (stereo not given) |
| < 10% | inactive | COc1cc2c(cc1OC)[C@H](c1ccc(Oc3ccc([N+](=O)[O-])cc3)cc1)N(C(=O)N1CCc3cc(OC)c(OC)cc3[C@@H]1c1ccc(Oc3ccc([N+](=O)[O-])cc3)cc1)CC2 (racemic) |
| < 10% | inactive | COc1cc2c(cc1OC)C(c1cccc(-c3cccc([N+](=O)[O-])c3)n1)=NCC2 |
| < 10% | inactive | COc1ccc(OC)c(C[C@@H]2NC(=O)[C@@H]3Cc4c(OC)ccc(OC)c4[C@@H](/C=C/c4ccccc4)N3C2=O)c1 (racemic) |
| < 10% | inactive | COc1ccc(CCNC(=O)N2CCc3cc(OC)c(OC)cc3C2c2ccccc2)cc1OC (stereo not given) |
| < 10% | inactive | COc1ccc(/C=C2\NC(=O)[C@@H]3Cc4cc(OC)c(OC)cc4[C@@H](c4cccc([N+](=O)[O-])c4)N3C2=O)cc1OC |
| < 10% | inactive | COc1c(C)c(OC)c(OC)c2c1C[C@H]1C(=O)N3[C@@H](Cc4c(OC)c(C)c(OC)c(OC)c4[C@@H]3/C=C/c3ccccc3)C(=O)N1[C@H]2/C=C/c1ccccc1 (racemic) |
| < 10% | inactive | COc1ccc(CCNC(=O)NCCc2ccc(OC)c(OC)c2)cc1OC |
| < 10% | inactive | CCC[C@H]1c2cc(OC)c(OC)cc2CCN1C(=O)N1CCc2cc(OC)c(OC)cc2[C@@H]1CCC (racemic) |
| < 10% | inactive | COc1ccc(CCNC(=O)N2CCc3cc(OC)c(OC)cc3C2c2ccccc2Cl)cc1OC (racemic) |
| < 10% | inactive | COc1cc2c(cc1OC)C(c1cccc(-c3cccc([N+](=O)[O-])c3)n1)NCC2 (racemic) |
| < 10% | inactive | COc1cc2c(cc1OC)[C@H](c1cccc(-c3cccc([N+](=O)[O-])c3)n1)N(C(=O)N1CCc3cc(OC)c(OC)cc3[C@@H]1c1cccc(-c3cccc([N+](=O)[O-])c3)n1)CC2 (racemic) |
| < 10% | inactive | CCCC1c2cc(OC)c(OC)cc2CCN1C(=O)NCCc1ccc(OC)c(OC)c1 (stereo not given) |
| < 10% | inactive | COc1ccc(CCNC(=O)N2CCc3cc(OC)c(OC)cc3C2c2ccc(Cl)cc2)cc1OC (stereo not given) |
| < 10% | inactive | COc1cc2c(cc1OC)[C@@H](c1ccc(F)cc1)N(C(=O)N1CCc3cc(OC)c(OC)cc3[C@@H]1c1ccc(F)cc1)CC2 |

| Activity [1] | Activity [2] | Structure (SMILES) |
| --- | --- | --- |
| < 10% | inactive | COc1cc2c(cc1OC)[C@H](c1ccc(C(F)(F)F)cc1)N(C(=O)N1CCc3cc(OC)c(OC)cc3[C@@H]1c1ccc(C(F)(F)F)cc1)CC2 (racemic) |
| < 10% | inactive | CCC1c2cc(OC)c(OC)cc2CCN1C(=O)NCCc1ccc(OC)c(OC)c1 (stereo not given) |
| < 10% | inactive | COc1cc2c(cc1OC)C(c1ccc(C(F)(F)F)cc1)N(C(C)=O)CC2 (stereo not given) |
| < 10% | inactive | COc1cc2c(cc1OC)[C@H](c1ccc(Cl)cc1)N(C(=O)N1CCc3cc(OC)c(OC)cc3[C@@H]1c1ccc(Cl)cc1)CC2 (racemic) |
| inactive | inactive | COc1cc(C[C@@H]2NC(=O)[C@H](Cc3cc(OC)c(OC)c(C)c3OC)NC2=O)c(OC)c(C)c1OC (racemic) |
| < 10% | inactive | COc1cc2c(cc1OC)[C@H](c1ccc(Br)cc1)N(C(=O)N1CCc3cc(OC)c(OC)cc3[C@@H]1c1ccc(Br)cc1)CC2 (racemic) |
| < 10% | inactive | COc1ccc(/C=C2\NC(=O)[C@@H]3Cc4cc(OC)c(OC)cc4[C@@H](c4ccc(Br)cc4)N3C2=O)cc1OC |
| < 10% | inactive | COc1cc2c(cc1OC)C(c1ccc([N+](=O)[O-])cc1[N+](=O)[O-])NCC2 (racemic) |
| < 10% | inactive | COc1cc2c(cc1OC)[C@H](c1ccccc1)N(C(=O)N1CCc3cc(OC)c(OC)cc3[C@@H]1c1ccccc1)CC2 (racemic) |
| < 10% | inactive | COc1cc2c(cc1OC)[C@H](c1ccccc1Cl)N(C(=O)N1CCc3cc(OC)c(OC)cc3[C@@H]1c1ccccc1Cl)CC2 (racemic) |
| < 10% | inactive | COc1cc2c(cc1OC)[C@H](c1cccc([N+](=O)[O-])c1)N(C(=O)N1CCc3cc(OC)c(OC)cc3[C@@H]1c1cccc([N+](=O)[O-])c1)CC2 (racemic) |
| < 10% | inactive | COc1cc2c(cc1OC)C(c1ccc(Cl)cc1)NCC2 (racemic) |
| < 10% | inactive | COc1ccc(CCNC(=O)N2CCc3cc(OC)c(OC)cc3C2c2cccc([N+](=O)[O-])c2)cc1OC (stereo not given) |
| < 10% | inactive | COc1cc2c(cc1OC)[C@@H](c1ccc(Oc3ccc([N+](=O)[O-])cc3)cc1)N(C(=O)N1CCc3cc(OC)c(OC)cc3[C@@H]1c1ccc(Oc3ccc([N+](=O)[O-])cc3)cc1)CC2 |
| < 10% | inactive | COc1cc2c(cc1OC)[C@@H](c1ccc(C(F)(F)F)cc1)N(C(=O)N1CCc3cc(OC)c(OC)cc3[C@@H]1c1ccc(C(F)(F)F)cc1)CC2 |
| < 10% | inactive | COc1cc2c(cc1OC)[C@H](c1ccc3ccccc3c1)N(C(=O)N1CCc3cc(OC)c(OC)cc3[C@@H]1c1ccc3ccccc3c1)CC2 (racemic) |
| < 10% | inactive | COc1ccc(/C=C2\NC(=O)[C@@H]3Cc4cc(OC)c(OC)cc4[C@@H](c4ccccc4Cl)N3C2=O)cc1OC |

| Structure (SMILES) | Activity [1] | Activity [2] |
| --- | --- | --- |
| COc1cc2c(cc1OC)[C@H](c1ccc([N+](=O)[O-])cc1[N+](=O)[O-])N(C(=O)N1CCc3cc(OC)c(OC)cc3[C@@H]1c1ccc([N+](=O)[O-])cc1[N+](=O)[O-])CC2 (racemic) | < 10% | inactive |
